Amino acid sequences for entries named in this document (tags omitted). A change or cut given only in a name is not applied to a line headed by its entry.
UniProt Q9HBH9: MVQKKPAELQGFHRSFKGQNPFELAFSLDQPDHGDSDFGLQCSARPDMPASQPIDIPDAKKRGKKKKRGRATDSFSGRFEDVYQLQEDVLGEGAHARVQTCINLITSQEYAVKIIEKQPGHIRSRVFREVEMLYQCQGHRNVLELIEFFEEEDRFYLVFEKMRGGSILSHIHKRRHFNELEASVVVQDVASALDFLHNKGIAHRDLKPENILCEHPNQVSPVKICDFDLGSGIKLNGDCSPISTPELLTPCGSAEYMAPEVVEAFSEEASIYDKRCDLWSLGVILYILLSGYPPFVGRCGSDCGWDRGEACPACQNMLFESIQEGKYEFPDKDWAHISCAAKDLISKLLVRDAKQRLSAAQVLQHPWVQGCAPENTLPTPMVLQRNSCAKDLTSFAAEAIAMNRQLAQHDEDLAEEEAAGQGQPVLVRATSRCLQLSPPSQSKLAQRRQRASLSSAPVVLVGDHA
UniProt Q9BUB5: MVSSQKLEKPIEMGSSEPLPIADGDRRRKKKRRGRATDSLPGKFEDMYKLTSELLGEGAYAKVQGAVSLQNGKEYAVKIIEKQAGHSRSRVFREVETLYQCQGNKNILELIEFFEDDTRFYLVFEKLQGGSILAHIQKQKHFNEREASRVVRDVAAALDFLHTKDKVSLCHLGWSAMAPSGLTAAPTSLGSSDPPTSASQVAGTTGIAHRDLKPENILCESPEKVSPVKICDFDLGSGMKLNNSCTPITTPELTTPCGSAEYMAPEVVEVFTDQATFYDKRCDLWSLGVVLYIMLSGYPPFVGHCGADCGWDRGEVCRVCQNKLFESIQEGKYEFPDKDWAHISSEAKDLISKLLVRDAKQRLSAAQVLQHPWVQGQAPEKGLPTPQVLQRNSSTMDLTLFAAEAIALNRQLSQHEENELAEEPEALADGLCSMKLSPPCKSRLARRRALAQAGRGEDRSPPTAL

In ChEMBL document CHEMBL4184320, “Optimization of Selective Mitogen-Activated Protein Kinase Interacting Kinases 1 and 2 Inhibitors for the Treatment of Blast Crisis Leukemia” (J Med Chem, 2018):

Assays:
[1] = molecular target: MAP kinase-interacting serine/threonine-protein kinase 1/2 (Homo sapiens, UniProt Q9HBH9+Q9BUB5); test: Inhibition of MNK1/2 in human HeLa cells assessed as decrease in eIF4E phosphorylation at Ser209 after 2 hrs by AlphaScreen assay; type: cell-based
in vivo = settings: CD-1, mouse, po, 5 mg/kg
[2] = Efflux ratio of apparent permeability in human Caco2 cells by LC-MS/MS analysis; type: ADME, cell-based; settings: Caco-2

IC50 [1] | Tmax (in vivo) | efflux ratio [2] | SMILES
0.44 µM | – | – | CN1CCN(C(=O)c2ccc(-c3cn4c(-c5ccc(C#N)cc5)cnc4cn3)cc2)CC1
– | 30 min | 0.64 | N#Cc1ccc(-c2cnc3ccc(-c4ccc(C(=O)N5CCOCC5)cc4)nn23)cc1
